# Results published in patent US10745394B2, “8-azabicyclo[3.2.1]octane compounds as mu opioid receptor antagonists” (priority 2006, dated 2020).
# By UniProt entry, the sequences of proteins in these tests, tags left out.
# UniProt P35372, whole entry: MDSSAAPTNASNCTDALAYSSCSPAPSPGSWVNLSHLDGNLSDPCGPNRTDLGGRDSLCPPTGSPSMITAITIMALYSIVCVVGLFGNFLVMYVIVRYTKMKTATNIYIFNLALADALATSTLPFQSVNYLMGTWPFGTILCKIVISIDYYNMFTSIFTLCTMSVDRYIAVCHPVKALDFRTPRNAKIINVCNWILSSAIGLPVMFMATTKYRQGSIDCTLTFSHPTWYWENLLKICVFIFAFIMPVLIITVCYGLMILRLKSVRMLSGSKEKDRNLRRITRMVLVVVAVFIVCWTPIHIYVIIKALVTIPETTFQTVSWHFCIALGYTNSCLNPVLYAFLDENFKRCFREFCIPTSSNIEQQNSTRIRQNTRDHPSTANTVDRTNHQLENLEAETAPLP
# Target: T1, human mu opioid receptor (Homo sapiens, UniProt P35372)
# T1 construct: expressed in transfected cells; host or cells: CHO-K1
# Test: Radioligand binding assay, human mu opioid receptor
# Conditions: displacement of [3H]-Diprenorphine
smiles,measurement,value
"NC(=O)c1cccc([C@H]2C[C@H]3CC[C@@H](C2)N3CCN(CCc2ccccc2)C(=O)CO)c1 [Example 59, 3-endo-(8-{2-[(2-hydroxyacetyl)phenethylamino]-ethyl}-8-azabicyclo[3.2.1]oct-3-yl)benzamide]",pKi,9.2
